Experimental data as given in US5053333A, “Protease” (M & D Research Co., Ltd., priority 1988, dated 1991).

Test system: Benz-I (protease specific for basic amino acid residue)
Experiment: Cleavage of peptides by Benz-I, HPLC and amino acid composition of fragments
Format: biochemical, Kluyveromyces lactis IFO 1903
Settings: 200 mU Benz-I, 25 nmol peptide, 30° C., 20 hours

Tyr-Gly-Gly-Phe-Met-Arg-Arg-Val-Gly-Arg-Pro-Glu-Trp-Trp-Met-Asp-Tyr-Gln-Lys-Arg-Tyr-Gly-Gly-Phe-Leu
Fragment obtained (assumed from amino acid composition) after reaction with Benz-I: Val-Gly-Arg-Pro-Glu-Trp-Trp-Met-Asp-Tyr-Gln-Lys-^20Arg
